Measurements: PubChem BioAssay AID493084 (National Center for Advancing Translational Sciences (NCATS), 2011)
The entries are a selection whose mix differs from that of the whole data set. The source made the active and inactive calls. Rule as the data show it: active = activation above about 30%; inactive = the rest.

Chains of the proteins cited; added tags and fusions are not shown.
UniProt P34981, whole entry: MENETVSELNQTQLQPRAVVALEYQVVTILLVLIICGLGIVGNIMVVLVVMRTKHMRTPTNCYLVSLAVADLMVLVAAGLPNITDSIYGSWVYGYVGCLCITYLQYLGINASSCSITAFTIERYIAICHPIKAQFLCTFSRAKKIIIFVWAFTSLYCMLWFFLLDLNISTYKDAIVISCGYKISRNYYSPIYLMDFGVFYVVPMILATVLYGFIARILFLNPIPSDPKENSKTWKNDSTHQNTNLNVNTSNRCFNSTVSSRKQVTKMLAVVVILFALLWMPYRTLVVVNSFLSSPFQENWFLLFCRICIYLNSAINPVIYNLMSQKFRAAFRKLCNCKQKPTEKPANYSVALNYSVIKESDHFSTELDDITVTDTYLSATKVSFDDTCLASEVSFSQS

biological target: Thyrotropin-releasing hormone receptor (Homo sapiens) (UniProt P34981); test: qHTS for Small Molecule Agonists and Allosteric Enhancers of Human TRH Receptor: Primary Screen for Agonists.; also: 0% is about no effect; conditions: TRHR cells, calcium flux fluo-8, FDSS agonist mode; at 2 µM; stronger effect = higher value
Excerpt: NIH Chemical Genomics Center [NCGC] NIH Molecular Libraries Probe Centers Network [MLPCN] MLPCN Grant: MH089816-01 Assay Submitter (PI): Marvin Gershengorn This project aims to identify small drug-like molecules that activate (agonists) the thyrotropin releasing hormone (TRH) receptor (TRHR) or enhance its TRH-stimulated activity (allosteric enhancers). TRHR, a drug-accessible cell surface receptor expressed in specific brain regions, and its ligand TRH have been implicated in several central nervous system disorders, including depression and anxiety. Small molecule TRHR agonists or allosteric enhancers that are metabolically stable and able to cross the blood-brain barrier might serve as probes to elucidate the roles of brain TRH receptors in animal models, and might be valuable as lead compounds for the development of drugs to treat patients with central nervous system disorders. Upon TRHR-Gq activation in TRHR cells, intracellular calcium is released from stores in the endoplasmic reticulum. […] This primary screen measures compound-induced activation of calcium release.
For the HTS assay freshly prepared cells are plated at a density of 2000/well in 3 ul of complete DMEM medium containing 10% serum in 1536-well plates and cultured over night at 37 C in a humidified incubator with 5% CO2. The next day, 2 ul of a no wash calcium dye (ABD Bioquest) was added to the cells and plates were incubated at room temperature for 1 hour. For the assay, assay plates were loaded into the FDSS kinetic plate reader. A 10 cycle (1 second/cycle) baseline measurement is taken and then the FDSS online 1536 pintool delivers 23 nl of compound library (as well as TRH controls) to the plate. The plate is measured for kinetically at 1 cycle/sec for 180 seconds and is considered to be the agonist portion of the assay (eg, compounds which activate a positive calcium response during this portion are flagged as potential agonists). Following the 180 second read, 1 ul of either an EC20 (positive modulation assay) is delivered by an onboard pipette head. Measurements are taken kinetically for an additional 180 seconds. TRHR FDSS Screening Protocol 1. Reagent, 3 uL 2000 cells/well 1536 TC treated Black plate in media containing 10% FCS 2. Time, 18 hours, 33.5C 5% CO2 (cells grown at 37C) 3. Reagent, 2 uL ABD fluo-8 Ca dye 4. Time, 30 min-1.5hrs hours, Room temp (6 plates/batch) 5. Detector, EX 480/EM 530C, FDSS 10 cycles baseline (1sec/cycle) 6. Compound, 23 nL of stock solution from library 7. Detector, EX 480/EM 530C, FDSS […] (1sec/cycle) Agonist mode 8. Compound, 1 ul EC20 of TRH made up in HEPES HBSS, 10 nM final 9. Detector, EX 480/EM 530C, FDSS 100 cycles (1sec/cycle) Potentiator mode

| Compound | activation |
| --- | --- |
| O=[N+]([O-])c1cc([N+](=O)[O-])c(-n2nnc3ccccc32)c([N+](=O)[O-])c1 | inactive: -0.417% |
| Cc1nc2ccc3ccccc3c2s1.O=[N+]([O-])c1cc([N+](=O)[O-])c(O)c([N+](=O)[O-])c1 | inactive: -0.8% |
| O=[N+]([O-])c1cc([N+](=O)[O-])c(Nc2nnnn2CCO)c([N+](=O)[O-])c1 | inactive: -0.0829% |
| CC1=C2N=C(C=C3N=C(C(C)=C4[N-][C@@](C)([C@@H]5N=C1[C@](C)(CCC(=O)NC[C@@H](C)OP(=O)([O-])O[C@H]1[C@@H](O)[C@@H](n6cnc7cc(C)c(C)cc76)O[C@@H]1CO)[C@H]5CC(N)=O)[C@@](C)(CC(N)=O)[C@@H]4CCC(N)=O)[C@@](C)(CC(N)=O)[C@@H]3CCC(N)=O)C(C)(C)[C@@H]2CCC(N)=O.[C-]#N.[Co+3] | inactive: 0.0606% |
| CP(=O)(Nc1ccc(SC(F)(F)F)cc1)Oc1ccccc1 (stereo not drawn) | inactive: 0.863% |
| CCCOc1ccc(NP(C)(=O)Oc2ccc(Cl)cc2)cc1 (stereo not drawn) | inactive: -1.27% |
| CN1CCCCC1COC(=O)C1(O)c2ccccc2CCc2ccccc21 (stereo not drawn) | inactive: 0.029% |
| COc1ccccc1OP(C)(=O)Nc1c(C)cccc1C (stereo not drawn) | inactive: 0.597% |
| CC1=NCCc2c1[nH]c1ccccc21.O=[N+]([O-])c1cc([N+](=O)[O-])c(O)c([N+](=O)[O-])c1 | inactive: -0.0199% |
| Cc1cc(C)cc(OP(C)(=O)Nc2ccc(C)cc2C)c1 (stereo not drawn) | inactive: 0.0166% |
| CCOC(=O)c1ccc(NP(C)(=O)Oc2cc(C)cc(C)c2)cc1 (stereo not drawn) | inactive: 0.606% |
| COc1ccccc1OP(C)(=O)Nc1cccc(Br)c1 (stereo not drawn) | inactive: -0.716% |
| CP(=O)(Nc1cccc(Br)c1)Oc1ccccc1 (stereo not drawn) | inactive: -0.57% |
| Cc1cc(C)cc(OP(C)(=O)Nc2ccccn2)c1 (stereo not drawn) | inactive: -1.06% |
| Cc1ccc(C)c(NP(C)(=O)Oc2ccccc2)c1 (stereo not drawn) | inactive: -0.0372% |
| CCN(CC)CCCOC(=O)C(O)(c1ccccc1)c1ccccc1 | inactive: 0.756% |
| CC(C)(C)c1ccc(OP(C)(=O)Nc2ccc(SC(F)(F)F)cc2)cc1 (stereo not drawn) | inactive: -0.483% |
| Cc1cccc(C)c1OP(C)(N)=O (stereo not drawn) | inactive: 0.367% |
| O=[N+]([O-])c1ccc2c(c1)C=Nc1ccccc1O2 | inactive: 1.57% |
| O=[N+]([O-])c1cc([N+](=O)[O-])c(Nc2cccnc2)c([N+](=O)[O-])c1 | inactive: 5.95% |

| Compound | activation |
| --- | --- |
| COc1ccccc1OP(C)(=O)Nc1cc(Cl)ccc1C (stereo not drawn) | inactive: -0.625% |
| COc1ccc(OP(C)(=O)Nc2cccc(F)c2)cc1 (stereo not drawn) | inactive: -0.141% |
| Cc1cc(C)cc(OP(C)(N)=O)c1 (stereo not drawn) | inactive: 0.0315% |
| CCOC(=O)c1ccc(NP(C)(=O)Oc2ccccc2)cc1 (stereo not drawn) | inactive: 0.0438% |
| COc1ccccc1OP(C)(=O)Nc1ccc(C)cc1 (stereo not drawn) | inactive: -0.301% |
| Cc1ccc(NP(C)(=O)Oc2ccccc2)c(C)c1 (stereo not drawn) | inactive: -0.771% |
| COc1ccccc1OP(C)(=O)Nc1ccccc1 (stereo not drawn) | inactive: -0.0829% |
| CP(=O)(Nc1ccccc1Br)Oc1ccccc1 (stereo not drawn) | inactive: -0.574% |
| CP(=S)(Nn1cnnc1)Oc1ccccc1 (stereo not drawn) | inactive: -0.205% |
| CCc1ccc(OP(C)(=O)N2CCN(c3ccc([N+](=O)[O-])cc3)CC2)cc1 (stereo not drawn) | inactive: -0.132% |
| CP(=O)(NC(=O)Nc1ccccc1)Oc1ccccc1 (stereo not drawn) | inactive: 0.355% |
| Cc1cc(C)cc(OP(C)(=O)Nc2ccc(SC(F)(F)F)cc2)c1 (stereo not drawn) | inactive: 0.588% |
| CP(=O)(Nc1ccc(SC(F)(F)F)cc1)Oc1ccc(Cl)cc1 (stereo not drawn) | inactive: 0.547% |
| Cc1cccc(C)c1OP(C)(=O)Nc1ccc(SC(F)(F)F)cc1 (stereo not drawn) | inactive: 1.89% |
| CP(=O)(Oc1ccccc1)OC(c1ccccc1)C(F)(F)F (stereo not drawn) | inactive: 0.0123% |
| CP(=O)(Nc1ccccn1)Oc1ccc(Cl)cc1 (stereo not drawn) | inactive: -0.58% |
| CCOP(C)(=S)SCC(=O)NC(C)C(=O)O (stereo not drawn) | inactive: -0.187% |
| CCOC(=O)c1ccc(NP(C)(=O)Oc2ccc(OC)cc2)cc1 (stereo not drawn) | inactive: 0.98% |
| CP(=O)(Oc1ccccc1)N1CCOC1=O (stereo not drawn) | inactive: 2.69% |
| CCc1ccc(OP(C)(=O)Nc2cccnc2)cc1 (stereo not drawn) | inactive: -0.361% |

| Compound | activation |
| --- | --- |
| COc1ccccc1OP(C)(=O)Nc1c(C)n(C)n(-c2ccccc2)c1=O (stereo not drawn) | inactive: 0.241% |
| O=C(OCCCN1CCCC1)C(O)(c1ccccc1)C1CCCCC1 (stereo not drawn) | inactive: 0.151% |
| CCN(CC)CC(O)COC(=O)C(O)(c1ccccc1)C1CCCCC1 (stereo not drawn) | inactive: 0.104% |
| COc1ccc(OP(C)(=O)Nc2ccc(Br)cc2)cc1 (stereo not drawn) | inactive: 0.0824% |
| CN(C)C(=O)c1c([N+](=O)[O-])cc([N+](=O)[O-])cc1[N+](=O)[O-] | inactive: 0.879% |
| CP(=O)(Nc1ccc(Cl)cc1)Oc1ccc(F)cc1 (stereo not drawn) | inactive: -0.0263% |
| CC(C)(C)c1ccc(OP(C)(=O)O)cc1 | inactive: -1% |
| COc1ccccc1OP(C)(=O)Nc1ccccc1Br (stereo not drawn) | inactive: -0.873% |
| CP(=O)(OC12CC3CC(CC(C3)C1)C2)OC12CC3CC(CC(C3)C1)C2 | inactive: 1.71% |
| CCOC(=O)c1ccc(NP(C)(=O)Oc2ccc(Cl)cc2)cc1 (stereo not drawn) | inactive: -0.32% |
| COc1ccc(OP(C)(=O)Nc2ccccc2Br)cc1 (stereo not drawn) | inactive: -0.0453% |
| COc1ccccc1OP(C)(=O)Nc1ccc(C)c(C)c1 (stereo not drawn) | inactive: 0.563% |
| Cc1cc(C)cc(OP(C)(=O)Nc2cccc(C(F)(F)F)c2)c1 (stereo not drawn) | inactive: -1.31% |
| CP(=O)(OCCOc1ccccc1)OCCOc1ccccc1 | inactive: -0.343% |
| CP(=O)(Nc1ccc(Cl)cc1Cl)Oc1ccccc1 (stereo not drawn) | inactive: -0.182% |
| Cc1nc2ccc3ccccc3c2o1.O=[N+]([O-])c1cc([N+](=O)[O-])c(O)c([N+](=O)[O-])c1 | inactive: -0.201% |
| CN(C)CCOC(=O)C(O)(c1ccccc1)C1CCCC1 (stereo not drawn) | inactive: 0.104% |
| COc1ccc(OP(C)(=O)Nc2ccccn2)cc1 (stereo not drawn) | inactive: 0.268% |
